From patent US11198695B2, “Fused ring derivative having MGAT-2 inhibitory activity” (Shionogi & Co., Ltd., priority 2017, dated 2021)

By UniProt entry, the sequences of proteins in these tests, tags left out.
UniProt Q3SYC2, whole entry: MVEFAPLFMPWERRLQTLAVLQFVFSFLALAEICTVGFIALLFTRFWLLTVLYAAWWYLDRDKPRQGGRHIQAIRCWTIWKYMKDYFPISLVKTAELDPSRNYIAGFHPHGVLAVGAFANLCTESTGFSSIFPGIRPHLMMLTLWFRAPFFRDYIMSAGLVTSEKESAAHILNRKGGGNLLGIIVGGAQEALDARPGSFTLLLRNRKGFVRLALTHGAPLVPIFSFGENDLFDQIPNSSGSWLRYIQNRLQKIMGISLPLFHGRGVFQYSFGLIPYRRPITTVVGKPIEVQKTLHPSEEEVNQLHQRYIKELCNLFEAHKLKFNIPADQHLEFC

Experiments:
[1] = biological target: recombinant human MGAT2 (Homo sapiens (Human), UniProt Q3SYC2); experiment: Measurement of human MGAT2 inhibitory activity
Method: A full-length human MGAT2 gene to which a Flag-tag had been added at the N-terminal was inserted into pFastBac (from Invitrogen). A recombinant baculovirus was produced in accordance with the protocol for a Bac-to-Bac baculovirus expression system (produced by Invitrogen), and Sf-9 cells were infected therewith. The cells were collected and sonicated, and then the membrane fraction was collected through centrifugation. Western blotting analysis with an anti-Flag antibody was performed for the membrane fraction to confirm expression, and the membrane fraction was used as a recombinant human MGAT2 enzyme solution.
Solutions of the compounds of the present invention in DMSO were each aliquoted into 0.2-μL portions in a 384-well polystyrene microplate produced by Corning Incorporated, and 5 μL of an enzyme solution prepared with an assay buffer (100 mmol/L phosphate buffer (pH 7.4) containing 2 mmol/L DTT) and 5 μL of a substrate solution (100 mmol/L phosphate buffer (pH 7.4), 30 μmol/L 2-Oleoylglycerol, 10 μmol/L Oleoyl-CoA) were added thereto, and the resultant was stirred and centrifuged, and incubated in a moist chamber at room temperature for 1 hour. After enzymatic reaction, 50 μL of a quenching solution (containing 0.2 μmol/L Diolein-d5, 0.4% formic acid, and 50% isopropanol) containing Internal Standard (IS) was added to terminate the reaction, and the resultant was sealed in a plate produced by Shimadzu GLC Ltd., and then stirred and centrifuged, and measurement was performed by using an electrospray ionization method with a RapidFire360 and Agilent 6550 Q-TOF mass spectrometer. Diolein as a reaction product (P) of 2-Oleoylglycerol as the substrate and an ammonium adduct ion of the IS were detected, and the peak intensity ratio, P/IS, was calculated from the peak heights to evaluate the inhibitory activity. Inhibitory activities with/without addition of enzyme were defined as Control (+)/Control (−), respectively, and the respective % inhibitions were defined as 0% inhibition and 100% inhibition. The inhibitory activity was calculated from formula below with TIBCO Spotfire (produced by TIBCO Software Inc.): Inhibitory activity (%)=[1−{Sample−Control(−)}/{Control(+)−Control(−)}]*100 where Sample indicates a peak intensity ratio: P/IS, when the compound of the present invention was added.

[2] = system: sheep erythrocyte; experiment: Phototoxicity test (erythrocyte photohemolysis test); conditions: sheep erythrocytes, UVA and UVB 10 J/cm^2
Method: An erythrocyte photohemolysis test (Wolfgang J. W. Pepe et al., ATLA29, 145-162, 2001), which was an evaluation method using effect to biomembranes and photoperoxidation as indexes, was conducted as an In vitro phototoxicity test. In this method, a solution of the compound of the present invention was prepared with dimethylsulfoxide as a medium, to which a sheep erythrocyte solution in a ratio of 2.5% (v/v) with respect to the prepared solution was added, and the thus-obtained mixed solution (concentration: 0.1 to 0.0008%) was used. The mixed solution was added to two microplates, and one of the prepared microplates was irradiated with light in UVA and UVB regions (10 J/cm^2, 290 to 400 nm) by using an ultraviolet fluorescence lamp (GL20SE lamp, SANKYO DENKI Co., Ltd., and, FL20S-BLB lamp, Panasonic Corporation), and subjected to centrifugation together with the microplate without irradiation with light, and then the absorbance (540 nm or 630 nm) of the supernatant was measured. To determine two indexes (effect to biomembranes and photoperoxidation) for evaluation of phototoxicity, the absorbance of the medium was subtracted from the absorbance obtained from the compound of the present invention for each of the cases with and without irradiation with light, and the thus-calculated values were used for the subsequent calculations. […]

[3] = Metabolism stability test; conditions: human liver microsomes, 30 minutes, 37° C., NADPH, 0.5 μmol/L of test compound
Method: Using commercially available pooled human hepatic microsomes, the compound of the present invention was reacted for a constant time, a remaining rate was calculated by comparing a reacted sample and an unreacted sample, thereby, a degree of metabolism of the compound of the present invention in liver was assessed.
A reaction was performed (oxidative reaction) at 37° C. for 0 minute or 30 minutes in the presence of 1 mmol/L NADPH in 0.2 mL of a buffer (50 mmol/L Tris-HCl pH 7.4, 150 mmol/L potassium chloride, 10 mmol/L magnesium chloride) containing 0.5 mg protein/mL of human liver microsomes. After the reaction, 50 μL of the reaction solution was added to 100 μL of a methanol/acetonitrile=1/1 (v/v) solution, mixed and centrifuged at 3000 rpm for 15 minutes. The compound of the present invention in the supernatant was quantified by LC/MS/MS, and a remaining amount of the compound of the present invention after the reaction was calculated, letting a compound amount at 0 minute reaction time to be 100%. (Result) Remaining rate was shown at 0.5 μmol/L of test compound.

[4] = Solubility test (1% DMSO addition, pH 6.8 artificial intestinal juice); conditions: 16 hours at 25° C.
[5] = read-out: IC50 (concentration exhibiting 50% enzyme inhibition), Table 53
[6] = read-out: IC50 (concentration exhibiting 50% enzyme inhibition), Table 52

Row | IC50 [1, 6] | Remaining rate (%) [3] | Solubility [4] | SMILES | further results
1 | 86 nM |  |  | CS(=O)(=O)CC(=O)Nc1c2c(nn1CCC1CC1)CC1(Cc3ccc(OCC(F)(F)F)cc3C1)NC2=O (single isomer, unassigned) [I-282] | 
2 | 91 nM |  |  | CS(=O)(=O)CC(=O)Nc1c2c(nn1CCC1CC1)CC1(Cc3ccc(OCC(F)(F)F)cc3C1)NC2=O (single isomer, unassigned) [I-283] | 
3 | 120 nM |  |  | COCCn1nc2c(c1NC(=O)CS(C)(=O)=O)C(=O)N[C@@]1(CCc3cc(OCCCC(F)(F)F)ccc31)C2 | 
4 | 59 nM | 1.88% | 15.8 µM (≈ 7.97 µg/mL) | CC(=O)NCc1c2c(nn1CCC1CC1)C[C@]1(CCc3cc(OCCCC(F)(F)F)ccc31)NC2=O | 
5 | 21 nM | 96.8% | 25.9 µM (≈ 14.4 µg/mL) | CS(=O)(=O)NC(=O)c1c2c(nn1CCC1CC1)C[C@]1(CCc3cc(OCCCC(F)(F)F)ccc31)NC2=O | 

Further lines, the compound ahead of its results:

Row | SMILES | IC50 [1, 6] | Remaining rate (%) [3] | Solubility [4] | further results
6 | CS(=O)(=O)CC(=O)Nc1c2c(nn1-c1ccc(C#N)cn1)CC1(CN(c3ccc(C(F)(F)F)cc3)C1)NC2=O |  |  |  | IC50 [1, 5]: 5.1 nM
7 | CS(=O)(=O)CC(=O)Nc1c(-c2ccccc2)nc2n1C(=O)N[C@@]1(CCc3cc(OCC(F)(F)F)ccc31)C2 | 330 nM |  |  | 
8 | CS(=O)(=O)CC(=O)Nc1c2c(nn1-c1ccccc1)C[C@]1(CCc3cc(OCCCC(F)(F)F)ccc31)NC2=O |  | 87.6% | 36.6 µM (≈ 21.1 µg/mL) | Phototoxicity judgement (photohemolysis rate and change in absorbance at 630 nm) [2]: (−) (It was judged to be (−) when the photohemolysis rate was less than 10% and the change in the absorbance at 630 nm was less than 0.05)
9 | Cc1ccc(-n2nc3c(c2NC(=O)CS(C)(=O)=O)C(=O)N[C@@]2(CCOc4cc(C5CC5)ccc42)C3)nc1 |  | 91.6% | >50 µM | 
10 | CS(=O)(=O)CC(=O)Nc1nc(CCC2CC2)nc2c1C(=O)N[C@@]1(CCc3cc(OCC(F)(F)F)ccc31)C2 | 99 nM |  |  | 
11 | CS(=O)(=O)CC(=O)Nc1c2c(nn1-c1ccc(C#N)cn1)CC1(CN(c3ccc(C(F)(F)F)cn3)C1)NC2=O |  |  |  | IC50 [1, 5]: 14 nM
12 | Cc1ccc(-n2nc3c(c2NC(=O)CS(C)(=O)=O)C(=O)N[C@@]2(CCOc4cc(F)cc(F)c42)C3)nc1 |  | 104% | >50 µM | 

≈ marks a conversion by molar mass, not a printed value. Like-named read-outs stand apart in the source and are kept apart here.
